Results: paper PMC3961306, “Comparison of the Cancer Gene Targeting and Biochemical Selectivities of All Targeted Kinase Inhibitors Approved for Clinical Use” (PLoS ONE, 2014)

Experiments:
Assay in all cases: Kinase profiling in a biochemical assay panel (mobility shift assays and ELISA), %-inhibition at 1 μM; selectivity entropy
[1] = biological target: panel of more than 300 wild-type and mutant kinases (313 kinase panel) (Homo sapiens, UniProt Q12866)
[2] = biological target: panel of more than 300 wild-type and mutant kinases (313 kinase panel) (Homo sapiens, UniProt P54764)
[3] = biological target: panel of more than 300 wild-type and mutant kinases (313 kinase panel) (Homo sapiens, UniProt O75676); conditions: 1 µM
[4] = biological target: panel of more than 300 wild-type and mutant kinases (313 kinase panel) (Homo sapiens, UniProt P41743); conditions: 1 µM
[5] = biological target: panel of more than 300 wild-type and mutant kinases (313 kinase panel) (Homo sapiens, UniProt P17612); conditions: 1 µM
[6] = biological target: panel of more than 300 wild-type and mutant kinases (313 kinase panel) (Homo sapiens, UniProt P52564); conditions: 1 µM
[7] = biological target: panel of more than 300 wild-type and mutant kinases (313 kinase panel) (Homo sapiens, UniProt Q05655); conditions: 1 µM
[8] = biological target: panel of more than 300 wild-type and mutant kinases (313 kinase panel) (Homo sapiens, UniProt Q08881); conditions: 1 µM
[9] = biological target: panel of more than 300 wild-type and mutant kinases (313 kinase panel) (Homo sapiens, UniProt P22455); conditions: 1 µM
[10] = biological target: panel of more than 300 wild-type and mutant kinases (313 kinase panel) (Homo sapiens, UniProt P19525); conditions: 1 µM
[11] = biological target: panel of more than 300 wild-type and mutant kinases (313 kinase panel) (Homo sapiens, UniProt O15111); conditions: 1 µM
[12] = biological target: panel of more than 300 wild-type and mutant kinases (313 kinase panel) (Homo sapiens, UniProt Q07912); conditions: 1 µM
[13] = biological target: panel of more than 300 wild-type and mutant kinases (313 kinase panel) (Homo sapiens, UniProt P11309); conditions: 1 µM
[14] = biological target: panel of more than 300 wild-type and mutant kinases (313 kinase panel) (Homo sapiens, UniProt O00141); conditions: 1 µM
[15] = biological target: panel of more than 300 wild-type and mutant kinases (313 kinase panel) (Homo sapiens, UniProt P00540)
[16] = biological target: panel of more than 300 wild-type and mutant kinases (313 kinase panel) (Homo sapiens, UniProt P29322); conditions: 1 µM
[17] = biological target: panel of more than 300 wild-type and mutant kinases (313 kinase panel) (Homo sapiens, UniProt P54762); conditions: 1 µM
[18] = biological target: panel of more than 300 wild-type and mutant kinases (313 kinase panel) (Homo sapiens, UniProt P07949, S891A); conditions: 1 µM
[19] = biological target: panel of more than 300 wild-type and mutant kinases (313 kinase panel) (Homo sapiens, UniProt Q8TF76); conditions: 1 µM
[20] = biological target: panel of more than 300 wild-type and mutant kinases (313 kinase panel) (Homo sapiens, UniProt P80192); conditions: 1 µM
[21] = biological target: panel of more than 300 wild-type and mutant kinases (313 kinase panel) (Homo sapiens, UniProt P15735); conditions: 1 µM
[22] = biological target: panel of more than 300 wild-type and mutant kinases (313 kinase panel) (Homo sapiens, UniProt Q9NRM7); conditions: 1 µM
[23] = biological target: panel of more than 300 wild-type and mutant kinases (313 kinase panel) (Homo sapiens, UniProt P45985); conditions: 1 µM

Compound	%-inhibition of MSK2 [3] [%]	%-inhibition of PKCι [4] [%]	%-inhibition of PKACα [5] [%]	%-inhibition of MAP2K6 [6] [%]	%-inhibition of PKCδ [7] [%]	%-inhibition of ITK [8] [%]	%-inhibition of FGFR4 [9] [%]	%-inhibition of PKR [10] [%]	%-inhibition of IKKα [11] [%]	%-inhibition, ACK [12] [%]	%-inhibition of PIM1 [13] [%]	%-inhibition of SGK [14] [%]	%-inhibition of EPHA8 [16] [%]	%-inhibition of EPHB1 [17] [%]	%-inhibition of RET(S891A) [18] [%]	%-inhibition of Haspin [19] [%]	%-inhibition of MLK1 [20] [%]	%-inhibition of PHKG2 [21] [%]	%-inhibition of LATS2 [22] [%]	%-inhibition of MAP2K4 [23] [%]	also measured
CNC(=O)c1ccccc1Sc1ccc2c(/C=C/c3ccccn3)n[nH]c2c1 [axitinib]	–	–	–	–	–	–	–	–	–	–	–	–	–	–	–	–	–	–	–	–	%-inhibition of MER ([1]; kinase MER, compound at 1 μM): 72%; %-inhibition of EPHA4 ([2]; kinase EPHA4, compound at 1 μM): -0.553%
COc1cc2ncnc(Nc3ccc(F)c(Cl)c3)c2cc1OCCCN1CCOCC1 [gefitinib]	2	9	5.52	12	1.51	1.42	3.4	8.43	-9	47	17	1.89	54	41	66	-6	9	8	-4	-3.57	%-inhibition of MOS ([15]; kinase MOS, 1 μM): 0%
C[C@@H]1CCN(C(=O)CC#N)C[C@@H]1N(C)c1ncnc2[nH]ccc12 [tofacitinib]	-2.74	-14	8	3.35	12	-4	3	-8	-3.61	17	-9	0.61	-5	0.465	48	-0.537	2.14	-3	-2	-1.89	%-inhibition of MER ([1]; 1 µM): 0.948%; %-inhibition of EPHA4 ([2]; 1 µM): -2%; %-inhibition of MOS ([15]; 1 µM): 4%
